Measurements taken from US20040142862A1, “Methods and compositions for modulating agonist-induced downregulation of G protein-coupled receptors” (The Regents of the University of California, priority 2002, published 2004).

Amino acid sequences for entries named in this document (tags omitted). Residues count along the entry.
UniProt P42866, 337-398 limits assumed: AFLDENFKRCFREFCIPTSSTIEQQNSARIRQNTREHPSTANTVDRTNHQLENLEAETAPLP

How the values were obtained:
[1] = molecular target: T1, cytoplasmic tail of MOR (Mus musculus, UniProt P42866); assay: GST affinity chromatography, binding to MOR cytoplasmic tail; conditions: in vitro, GST fusion
T1 construct: GST; made in house
Method: Sequence homology to a non-mammalian protein was observed between the carboxyl-terminal regions of GASP1 and Vac8p, a yeast protein involved in late endocytic trafficking (26).
(§1) 24. Affinity chromatography was carried out as previously described (25).

[2] = molecular target: T2, V2 vasopressin receptor (Homo sapiens, UniProt P30518); assay: GST affinity chromatography, binding to V2 vasopressin receptor tail
T2 construct: GST; made in house
Method: The ability of GASP1 to modulate the endocytic sorting of other (non-opioid) GPCRs was examined next. […] The lack of GASP1 interaction with the V2 receptor tail is consistent with the remarkable ability of these receptors to remain in endocytic vesicles for a prolonged period of time after endocytosis without undergoing any detectable downregulation (34).
as §1

| Molecule | binding to the cytoplasmic tail of MOR [1] | binding to the V2 vasopressin receptor tail [2] |
| --- | --- | --- |
| cGASP1: carboxyl-terminal fragment of the GASP1 protein, corresponding to the C-terminal 497 residues of GASP1 (protein) SETEEETIFGSWFWDGKEVSEEAGPCCVSKPEDDEEMIVESWFWSRDKAIKETGTVATCESKPENEEGAIVGSWFEAEDEVDNRTDNGSNCGSRTLADEDEAIVGSWFWAGDEAHFESNPSPVFRAICRSTCSVEQEPDPSRRPQSWEEVTVQFKPGPWGRVGFPSISPFRFPKEAASLFCEMFGGKPRNMVLSPEGEDQESLLQPDQPSPEFPFQYDPSYRSVQEIREHLRAKESTEPESSSCNCIQCELKIGSEEFEELLLLMEKIRDPFIHEISKIAMGMRSASQFTRDFIRDSGVVSLIETLLNYPSSRVRTSFLENMIRMAPPYPNLNIIQTYICKVCEETLAYSVDSPEQLSGIRMIRHLTTTTDYHTLVANYMSGFLSLLATGNAKTRFHVLKMLLNLSENLFMTKELLSAEAVSEFIGLFNREETNDNIQIVLAIFENIGNNIKKETVFSDDDFNIEPLISAFHKVEKFAKELQGKTDNQNDPEGDQEN | bound relatively weakly | – |
| GASP1: G protein-coupled receptor-associated sorting protein-1, 1395-residue predicted protein binding the DOR cytoplasmic tail (protein) MTGAEIESGAQVKPEKKPGEEVVGGAEIENDVPLVVRPKVRTQAQIMPGARPKNKSKVMPGASTKVETSAVGGARPKSKAKAIPVSRFKEEAQMWAQPRFGAERLSKTERNSQTNIIASPLVSTDSVLVAKTKYLSEDRELVNTDTESFPRRKAHYQAGFQPSFRSKEETNMGSWCCPRPTSKQEASPNSDFKWVDKSVSSLFWSGDEVTAKFHPGNRVKDSNRSMHMANQEANTMSRSQTNQELYIASSSGSEDESVKTPWFWARDKTNTWSGPREDPNSRSRFRSKKEVYVESSSGSEHEDHLESWFGAGKEGKFRSKMRAGKEANNRARHRAKREACIDFMPGSIDVIKKESCFWPEENANTFSRPMIKKEARARAMTKEEAKTKARARAKQEARSEEEALIGTWFWATDESSMADEASIESSLQVEDESIIGSWFWTEEEASMGTGASSKSRPRTDGERIGDSLFGAREKTSMKTGAEATSESILAADDEQVIIGSWFWAGEEVNQEAEEETIFGSWFWVIDAASVESGVGVSCESRTRSEEEEVIGPWFWSGEQVDIEAGIGEEARPGAEEETIFGSWFWAENQTYMDCRAETSCDTMQGAEEEEPIIGSWFWTRVEACVEGDVNSKSSLEDKEEAMIPCFGAKEEVSMKHGTGVRCRFMAGAEETNNKSCFWAEKEPCMYPAGGGSWKSRPEEEEDIVNSWFWSRKYTKPEAIIGSWLWATEESNIDGTGEKAKLLTEEETIINSWFWKEDEAISEATDREESRPEAEEGDIVGSWFWAGEEDRLEPAAETREEDRLAAEKEGIVGSWFGAREETIRREAGSCSKSSPKAEEEEVIIGSWFWEEEASPEAVAGVGFESKPGTEEEEITVGSWFWPEEEASIQAGSQAVEEMESETEEETIFGSWFWDGKEVSEEAGPCCVSKPEDDEEMIVESWFWSRDKAIKETGTVATCESKPENEEGAIVGSWFEAEDEVDNRTDNGSNCGSRTLADEDEAIVGSWFWAGDEAHFESNPSPVFRAICRSTCSVEQEPDPSRRPQSWEEVTVQFKPGPWGRVGFPSISPFRFPKEAASLFCEMFGGKPRNMVLSPEGEDQESLLQPDQPSPEFPFQYDPSYRSVQEIREHLRAKESTEPESSSCNCIQCELKIGSEEFEELLLLMEKIRDPFIHEISKIAMGMRSASQFTRDFIRDSGVVSLIETLLNYPSSRVRTSFLENMIRMAPPYPNLNIIQTYICKVCEETLAYSVDSPEQLSGIRMIRHLTTTTDYHTLVANYMSGFLSLLATGNAKTRFHVLKMLLNLSENLFMTKELLSAEAVSEFIGLFNREETNDNIQIVLAIFENIGNNIKKETVFSDDDFNIEPLISAFHKVEKFAKELQGKTDNQNDPEGDQEN | – | bound very weakly |
